Broadly, the IC50 is the concentration at which inhibition is half-maximal.

The chains behind the UniProt entries cited, without tags or fusion partners.
UniProt O75874, whole entry R132H: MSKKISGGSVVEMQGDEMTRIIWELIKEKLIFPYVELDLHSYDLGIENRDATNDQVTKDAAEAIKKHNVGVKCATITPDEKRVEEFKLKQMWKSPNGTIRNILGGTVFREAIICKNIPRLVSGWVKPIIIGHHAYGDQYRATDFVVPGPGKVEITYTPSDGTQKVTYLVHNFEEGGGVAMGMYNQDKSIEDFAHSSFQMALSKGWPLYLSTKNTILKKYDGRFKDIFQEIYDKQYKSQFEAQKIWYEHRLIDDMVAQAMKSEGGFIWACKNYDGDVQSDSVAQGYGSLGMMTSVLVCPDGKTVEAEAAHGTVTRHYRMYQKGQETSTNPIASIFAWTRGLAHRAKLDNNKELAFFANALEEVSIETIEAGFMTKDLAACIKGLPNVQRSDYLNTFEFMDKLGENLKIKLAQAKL

Counter-ions that a name gives are not always drawn. Like-named read-outs stand apart in the source and are kept apart here.

Consider 17 molecules from patent US10040791B2, “Isoxazole derivative as mutant isocitrate dehydrogenase 1 inhibitor” (Daiichi Sankyo Company, Limited, priority 2014, dated 2018).

The test system of one experiment is TF-1/IDH1R132H cells. In words: Inhibitory activity of TF-1/IDH1R132H cell growth (ATPlite). The format is cell-based, human. The conditions noted are these: read-out: Test Example 4 IC50. (ATP-based viability assays read luminescence as a measure of living cells.)
Another experiment deals with IDH1R132H (Homo sapiens (Human), UniProt O75874, R132H). Put plainly: Inhibitory activity against IDH1R132H enzyme (NADPH detection, WST-8). Type of experiment: biochemical. The conditions noted are these: 12 nM, residual NADPH detected with WST-8, read-out: Test Example 1 IDH1 R132H IC50. In general terms: Formazan colour is commonly taken as a measure of viable cells.

Experiment [1] concerns IDH1R132H-expressing TF-1 cells (TF-1/IDH1R132H). Put plainly: Inhibitory activity of 2-HG production using IDH1R132H-expressing TF-1 cells. The format is cell-based, human.
Experiment [2] has as its system IDH1/R132H mutant glioblastoma A1074-transplanted mouse model. In words: Antitumor activity against IDH1/R132H mutant glioblastoma A1074-transplanted mouse model. The conditions noted are these: NOG mice with subcutaneous A1074; mixed feed 0.3% compound for 4 weeks; FIG. 3 and 4.
Experiment [3] deals with AML mouse models harboring 4 genes including IDH1R132H. In words: 2-HG measurement in AML mouse models harboring 4 genes including IDH1R132H. The format is in vivo. Particulars: AML mice, suspension 7.5, 15, 30 mg/mL in 0.5% methylcellulose at 10 mL/kg, three times at intervals of twice a day, 6, 16, 24 hours after final administration.
The mark [4] stands for this setting: Homo sapiens, 2-HG production, IDH1R132H-expressing TF-1 cells, read-out: Test Example 2 IC50.

On to `CC1(c2onc(-c3c(Cl)cc(Cl)cc3Cl)c2C(=O)n2ccc3c(/C=C/C(=O)O)cccc32)COC1` [Example 1, (2E)-3-(1-{[5-(3-Methyloxetan-3-yl)-3-(2,4,6-trichlorophenyl)-1,2-oxazol-4-yl]carbonyl}-1H-indol-4-yl)prop-2-enoic acid], for which the IC50 was 79 nM in the experiment on TF-1/IDH1R132H cells (Homo sapiens), 10 nM at IDH1R132H and 33 nM in experiment [1] (setting [4]).
Take `COC1(c2onc(-c3c(Cl)cc(Cl)cc3Cl)c2C(=O)n2cc(C)c3c(/C=C/C(=O)O)cccc32)CCC1` [Example 79, (2E)-3-(1-{[5-(1-Methoxycyclobutyl)-3-(2,4,6-trichlorophenyl)-1,2-oxazol-4-yl]carbonyl}-3-methyl-1H-indol-4-yl)prop-2-enoic acid]: the values for the 50% inhibitory concentration (IC50) (in the experiment on TF-1/IDH1R132H cells (Homo sapiens); at IDH1R132H; in experiment [1] (setting [4])) were 26 nM, 21 nM and 26 nM, respectively.
As to `Cc1cn(C(=O)c2c(-c3c(Cl)cc(F)cc3Cl)noc2C(C)(C)F)c2cccc(/C=C/C(=O)O)c12` [Example 49, (2E)-3-(1-{[3-(2,6-Dichloro-4-fluorophenyl)-5-(2-fluoropropan-2-yl)-1,2-oxazol-4-yl]carbonyl}-3-methyl-1H-indol-4-yl)prop-2-enoic acid], the IC50 with TF-1/IDH1R132H cells (Homo sapiens) was 51 nM; at IDH1R132H, 9 nM; in experiment [1] (setting [4]) it was 89 nM.
In the same order, the values of `CC(C)(F)c1onc(-c2c(Cl)cc(Cl)cc2Cl)c1C(=O)n1cc2c3c(c(F)ccc31)/C(=C/C(=O)O)CC2` [Example 67, (2E)-[6-Fluoro-1-{[5-(2-fluoropropan-2-yl)-3-(2,4,6-trichlorophenyl)-1,2-oxazol-4-yl]carbonyl}-3,4-dihydrobenzo[cd]indol-5(1H)-ylidene]ethanoic acid] are 250 nM, 17 nM and 68 nM.
For the molecule `CC1(c2onc(-c3c(Cl)cc(Cl)cc3Cl)c2C(=O)n2cc3c4c(cccc42)/C(=C/C(=O)O)CC3)COC1` [Example 8, (2E)-[1-{[5-(3-Methyloxetan-3-yl)-3-(2,4,6-trichlorophenyl)-1,2-oxazol-4-yl]carbonyl}-3,4-dihydrobenzo[cd]indol-5(1H)-ylidene]ethanoic acid], the values for the IC50 (with TF-1/IDH1R132H cells (Homo sapiens); at IDH1R132H; in experiment [1] (setting [4])) were 68 nM, 8 nM and 21 nM, respectively.
For `Cc1cc(Cl)cc(Cl)c1-c1noc(C(C)(C)F)c1C(=O)n1cc(C)c2c(/C=C/C(=O)O)cccc21` [Example 59, (2E)-3-(1-{[3-(2,4-Dichloro-6-methylphenyl)-5-(2-fluoropropan-2-yl)-1,2-oxazol-4-yl]carbonyl}-3-methyl-1H-indol-4-yl)prop-2-enoic acid], the IC50 in the experiment on TF-1/IDH1R132H cells (Homo sapiens) amounted to 66 nM; on IDH1R132H, 15 nM; in experiment [1] (setting [4]), 52 nM.
For `C=CC(=O)N1CCC(O)(c2onc(-c3c(Cl)cc(Cl)cc3Cl)c2C(=O)n2cc(C)c3c(/C=C/C(=O)O)cccc32)CC1` [Example 123] the same measures were over 900 nM, 28 nM and 24 nM.
For `CC(C)(F)c1onc(-c2c(Cl)cc(Cl)cc2Cl)c1C(=O)n1ccc2c3c(ccc21)CCC(C(=O)O)C3` (stereo not drawn) [Example 18, 3-{[5-(2-Fluoropropan-2-yl)-3-(2,4,6-trichlorophenyl)-1,2-oxazol-4-yl]carbonyl}-6,7,8,9-tetrahydro-3H-Benzo[e]indole-8-carboxylic acid] the same measures were 447 nM, 19 nM and 121 nM.
For `C=CC(=O)N1CCC(C)(c2onc(-c3c(Cl)cc(Cl)cc3Cl)c2C(=O)n2cc(C)c3c(/C=C/C(=O)O)cccc32)CC1` [Example 113] the same measures were 245 nM, 27 nM and 40 nM.
Consider `C=CC(=O)N1CC2C(C1)C2c1onc(-c2c(Cl)cc(Cl)cc2Cl)c1C(=O)n1cc(C)c2c(/C=C/C(=O)O)cccc21` (stereo not drawn) [Example 124], for which the IC50 with TF-1/IDH1R132H cells (Homo sapiens) is over 900 nM; at IDH1R132H, 61 nM; in experiment [1] (setting [4]) it was 161 nM.
As for `CC(C)(C)c1onc(-c2c(Cl)cc(Cl)cc2Cl)c1C(=O)n1ccc2c(/C=C/C(=O)O)ccc(F)c21` [Example 48], the IC50 with TF-1/IDH1R132H cells came out at 216 nM; on IDH1R132H, 29 nM; in experiment [1] (2-HG production, IDH1R132H-expressing TF-1 cells, read-out: Test Example 2 IC50), 134 nM.
In the case of `C=CC(=O)N1CCC(c2onc(-c3ccc(Cl)cc3Cl)c2C(=O)n2cc(C)c3c(/C=C/C(=O)O)cccc32)CC1` [Example 106], the IC50 amounted to 192 nM with TF-1/IDH1R132H cells (Homo sapiens), 64 nM at IDH1R132H and 143 nM in experiment [1] (setting [4]).
In the same order, the values of `CC(C)(F)c1onc(-c2c(Cl)cc(Cl)cc2Cl)c1C(=O)n1cc2c3c(cccc31)/C(=C/C(=O)O)CC2` [Example 13, (2E)-[1-{[5-(2-Fluoropropan-2-yl)-3-(2,4,6-trichlorophenyl)-1,2-oxazol-4-yl]carbonyl}-3,4-dihydrobenzop[cd]indol-5(1H)-ylidene]ethanoic acid] are 151 nM, 18 nM and 55 nM.
For `CC(C)(C)c1onc(-c2c(Cl)cc(Cl)cc2Cl)c1C(=O)n1ccc2c(/C=C/C(=O)O)cccc21` [Example 22, (2E)-3-(1-{[5-(tert-Butyl)-3-(2,4,6-trichlorophenyl)-1,2-oxazol-4-yl]carbonyl}-1H-indol-4-yl)prop-2-enoic acid] the same measures were 159 nM, 31 nM and 110 nM.
In the same order, the values of `Cc1cn(C(=O)c2c(-c3c(Cl)cc(Cl)cc3Cl)noc2C2(C)CCC2)c2cccc(/C=C/C(=O)O)c12` [Example 10, (2E)-3-(3-Methyl-1-{[5-(1-methylcyclobutyl)-3-(2,4,6-trichlorophenyl)-1,2-oxazol-4-yl]carbonyl}-1H-indol-4-yl)prop-2-enoic acid] are 152 nM, 18 nM and 73 nM.
In the case of `Cc1cn(C(=O)c2c(-c3c(Cl)cc(Cl)cc3Cl)noc2C(C)(C)F)c2cccc(/C=C/C(=O)O)c12` [Example 168, (2E)-3-(1-{[5-(2-Fluoropropan-2-yl)-3-(2,4,6-trichlorophenyl)-1,2-oxazol-4-yl]carbonyl}-3-methyl-1H-indol-4-yl)prop-2-enoic acid tert-butylamine salt], the “tumor growth (tumor volume, tumor weight)” value in experiment [2] is reported as “inhibit tumor growth”. Moreover, the “2-HG concentration in the plasma” value in experiment [3] (FIG. 1A) is reported as “remarkably decreased”. The “2-HG level in the bone marrow cells” value in experiment [3] (FIG. 1B) was “remarkably decreased”.
Take `Cc1cn(C(=O)c2c(-c3c(Cl)cc(Cl)cc3Cl)noc2C(C)(F)F)c2cccc(/C=C/C(=O)O)c12` [Example 51, (2E)-3-(1-{[5-(1,1-Difluoroethyl)-3-(2,4,6-trichlorophenyl)-1,2-oxazol-4-yl]carbonyl}-3-methyl-1H-indol-4-yl)prop-2-enoic acid]: the IC50 with TF-1/IDH1R132H cells (Homo sapiens) was 271 nM; on IDH1R132H it was 15 nM; in experiment [1] (Homo sapiens, TF-1, read-out: Test Example 2 IC50 (nM)), 165 nM.
